Data reported in article PMC7734006 (Cancer Science, 2020).
“Also recorded” adds a separate entry of the source. Like-named read-outs stand apart in the source and are kept apart here.

Tests used:
[1] = tested on: patients with ALK-positive ALCL
[2] = tested on: relapsed or refractory ALK-positive ALCL; conditions: 10 patients
[3] = tested on: relapsed or refractory ALK-positive ALCL; conditions: 10 patients; Kaplan-Meier
ALK-positive ALCL = conditions: cited from earlier work
ALK-positive lymphoma = conditions: 18 patients with ALK-positive lymphoma; cited from earlier work
[4] = tested on: relapsed or refractory ALK-positive ALCL; conditions: cited from earlier work

CCc1cc2c(cc1N1CCC(N3CCOCC3)CC1)C(C)(C)c1[nH]c3cc(C#N)ccc3c1C2=O [alectinib]
Unexpected adverse events ([1]; 10 patients): No unexpected adverse events; also recorded: No unexpected AE
Visual disturbance ([1]; 10 patients): not observed
Allergic rhinitis, All grades ([1]; n = 10): 2 (20) n (%)
Allergic rhinitis, Grade ≥ 3 ([1]; n = 10): 0 (0) n (%)
Bronchitis, All grades ([1]; n = 10): 2 (20) n (%)
Bronchitis, Grade ≥ 3 ([1]; n = 10): 0 (0) n (%)
Conjunctivitis, All grades ([1]; n = 10): 2 (20) n (%)
Conjunctivitis, Grade ≥ 3 ([1]; n = 10): 0 (0) n (%)
Constipation, All grades ([1]; n = 10): 3 (30) n (%)
Constipation, Grade ≥ 3 ([1]; n = 10): 0 (0) n (%)
Coughing, All grades ([1]; n = 10): 2 (20) n (%)
Coughing, Grade ≥ 3 ([1]; n = 10): 0 (0) n (%)
Decreased neutrophil count, All grades ([1]; n = 10): 2 (20) n (%)
Decreased neutrophil count, Grade ≥ 3 ([1]; n = 10): 2 (20) n (%)
Diarrhea, All grades ([1]; n = 10): 4 (40) n (%)
Diarrhea, Grade ≥ 3 ([1]; n = 10): 0 (0) n (%)
Dry skin, All grades ([1]; n = 10): 2 (20) n (%)
Dry skin, Grade ≥ 3 ([1]; n = 10): 0 (0) n (%)
Edema in extremities, All grades ([1]; n = 10): 2 (20) n (%)
Edema in extremities, Grade ≥ 3 ([1]; n = 10): 1 (10) n (%)
Fever, All grades ([1]; n = 10): 2 (20) n (%)
Fever, Grade ≥ 3 ([1]; n = 10): 0 (0) n (%)
Headache, All grades ([1]; n = 10): 3 (30) n (%)
Headache, Grade ≥ 3 ([1]; n = 10): 0 (0) n (%)
Hyperuricemia, All grades ([1]; n = 10): 2 (20) n (%)
Hyperuricemia, Grade ≥ 3 ([1]; n = 10): 0 (0) n (%)
Increased AST, All grades ([1]; n = 10): 2 (20) n (%)
Increased AST, Grade ≥ 3 ([1]; n = 10): 0 (0) n (%)
Increased blood ALP, All grades ([1]; n = 10): 4 (40) n (%)
Increased blood ALP, Grade ≥ 3 ([1]; n = 10): 0 (0) n (%)
Malaise, All grades ([1]; n = 10): 2 (20) n (%)
Malaise, Grade ≥ 3 ([1]; n = 10): 0 (0) n (%)
Nausea, All grades ([1]; n = 10): 2 (20) n (%)
Nausea, Grade ≥ 3 ([1]; n = 10): 0 (0) n (%)
Oral mucositis, All grades ([1]; n = 10): 3 (30) n (%)
Oral mucositis, Grade ≥ 3 ([1]; n = 10): 1 (10) n (%)
Pain, All grades ([1]; n = 10): 2 (20) n (%)
Pain, Grade ≥ 3 ([1]; n = 10): 1 (10) n (%)
Pruritus, All grades ([1]; n = 10): 2 (20) n (%)
Pruritus, Grade ≥ 3 ([1]; n = 10): 0 (0) n (%)
Rash, All grades ([1]; n = 10): 4 (40) n (%)
Rash, Grade ≥ 3 ([1]; n = 10): 0 (0) n (%)
Upper respiratory infection, All grades ([1]; n = 10): 4 (40) n (%)
Upper respiratory infection, Grade ≥ 3 ([1]; n = 10): 0 (0) n (%)
Vomiting, All grades ([1]; n = 10): 2 (20) n (%)
Vomiting, Grade ≥ 3 ([1]; n = 10): 0 (0) n (%)
Patients in whom adverse events were observed ([1]; of 10 patients): 10 patients
Tolerability ([1]; patients with ALK-positive ALCL who had progressed on standard chemotherapy): well tolerated
CR rate [2]: 60%
Objective response (CR + PR) [2]: 8 (80) n (%)
Objective response rate (CR + PR) ([2]; 300 mg orally twice a day (150 mg if <35 kg), best response): 80%
1-year overall survival rate [3]: 70.0%
1-year progression-free survival rate [3]: 58.3%

C[C@@H](Oc1cc(-c2cnn(C3CCNCC3)c2)cnc1N)c1c(Cl)ccc(F)c1Cl [crizotinib]
Tolerability (ALK-positive ALCL; dose of 280 mg/m2 twice daily): well tolerated
Complete remission (CR) (ALK-positive ALCL; nine patients with ALK-positive ALCL (7/9)): 78%
Overall response rate (ALK-positive ALCL; nine patients with ALK-positive ALCL (8/9)): 89%
CRs, number (ALK-positive lymphoma): eight
Objective response rate (ALK-positive lymphoma): 53%
Overall response rate ([4]; 20 patients, dose of 280 mg/m2): 90%
AEs observed ([4]; across the crizotinib clinical trials): visual disturbance
Complete remission ([4]; dose of 165 mg/m2): 83%
Complete remission ([4]; dose of 280 mg/m2): 80%
Overall response rate ([4]; six patients, dose of 165 mg/m2): 83%
